Literature values in patent US20250170153A1, “METHODS FOR THE TREATMENT OF ANXIETY DISORDER” (ANANDA SCIENTIFIC, INC., priority 2022, published 2025).

Conditions: doses 10 mg to 6000 mg, single and multiple doses; cited from earlier work

## C=C(C)[C@@H]1CCC(C)=C[C@H]1c1c(O)cc(CCCCC)cc1O [CBD, 2-(1R,6R)-3-methyl-6-prop-1-en-2-ylcyclohex-2-en-1-yl-5-pentylbenzene-1,3-diol]
  Safety for use: safe
